Measured values as given in ChEMBL document CHEMBL1255455, “Biochemical study of a new inhibitor-resistant beta-lactamase, SHV-84, produced by a clinical Escherichia coli strain” (2010).

Legend:
[1] = substrate: CO/N=C(\C(=O)N[C@@H]1C(=O)N2C(C(=O)O)=C(COC(C)=O)CS[C@H]12)c1csc(N)n1; experiment: (§1) Activity at Escherichia coli beta-lactamase SHV-1
[2] = substrate: CC1(C)S[C@@H]2[C@H](NC(=O)[C@H](N)c3ccc(O)cc3)C(=O)N2[C@H]1C(=O)O; experiment: as §1
[3] = substrate: CC(C)(O/N=C(\C(=O)N[C@@H]1C(=O)N2C(C(=O)[O-])=C(C[n+]3ccccc3)CS[C@H]12)c1csc(N)n1)C(=O)O; experiment: as §1
[4] = substrate: CC(=O)OCC1=C(C(=O)O)N2C(=O)[C@@H](NC(=O)Cc3cccs3)[C@H]2SC1; experiment: Ratio of Kcat to Km in Escherichia coli beta-lactamase SHV-1

B1: Beta-lactamase SHV-1 (Escherichia coli), P0AD63 (protein)
chain: MRYIRLCIISLLATLPLAVHASPQPLEQIKLSESQLSGRVGMIEMDLASGRTLTAWRADERFPMMSTFKVVLCGAVLARVDAGDEQLERKIHYRQQDLVDYSPVSEKHLADGMTVGELCAAAITMSDNSAANLLLATVGGPAGLTAFLRQIGDNVTRLDRWETELNEALPGDARDTTTPASMAATLRKLLTSQRLSARSQRQLLQWMVDDRVAGPLIRSVLPAGWFIADKTGAGERGARGIVALLGPNNKAERIVVIYLRDTPASMAERNQQIAGIGAALIEHWQR
- Km [1]: 257 µM
- kcat [2]: 1040 s⁻¹
- Km [3]: 142 µM
- kcat/Km [4]: 3.2e+06 M⁻¹ s⁻¹
